Measured values as given in US20230190933A1, “Immunologically Active Peptide-Biliverdin Conjugate, Preparation Method Therefor and Application Thereof” (priority 2020, published 2023).

Legend:
[1] = tested on: dendritic cells from peripheral blood of non-small cell lung cancer model mice; conditions: coculture 24 hours; CD80, CD83, CD86
[2] = tested on: locally recurrent head and neck cancer; conditions: cited from earlier work

Row | Substance | promoting effect on the maturation of dendritic cells [1] | complete remission rate ([2]; clinical trials) | disease control rate ([2]; clinical trials) | remission rate ([2]; clinical trials) | biological safety ([2]; in vivo)
1 | biliverdin-KIFGSLAFL conjugate [Example 5] | can promote the maturation of dendritic cells | – | – | – | –
2 | Antibody-Drug Conjugates (ADC) composed of cetuximab and IRDye700DX | – | 16.7% | 86.7% | 50% | good biological safety
